According to patent US9061077B2, “Methods of determining renal function using technetium-99m tricarbonyl-nitrilotriacetic acid” (Emory University, priority 2008, dated 2015):

System: plasma protein
Assay: Plasma protein binding by ultrafiltration, rat plasma
Format: in vitro ADME
Conditions: rats
Method: Arterial blood samples were placed in capillary tubes and centrifuged to determine the hematocrit. Samples of the whole blood and packed cells (about 0.3 mL each) were pipetted into counting tubes, weighed, and counted. The percent uptake in the erythrocytes was calculated from the whole blood (counts/g) and packed cells (counts/g). Percent erythrocyte uptake=[(counts/g in erythrocytes×hematocrit)/counts/g in whole blood]. No correction was made for plasma trapped in the red blood cells sample. PPB and erythrocyte uptake were calculated in duplicate and the mean values reported.

## technetium-99m tricarbonyl-nitrilotriacetic acid [^99mTc(CO)3(NTA)]
  Plasma protein binding: 67±7%
